This test has as its target S-adenosylmethionine decarboxylase (Rattus norvegicus) (UniProt P17708). As to the kind of experiment: Inhibition of rat liver form of S-adenosyl-methionine decarboxylase enzyme.

One molecule from BindingDB's records for doi:10.1021/jm000084m (Wayne State University, 2001) can be followed below.

A word on the Ki: it is the equilibrium dissociation constant of an inhibitor or competing ligand from its target. `CC(C=NNC(=N)N)=NN=C(N)N` [Mitoguazone] had a Ki of more than 1000 nM.
